From publication PMC2263054, “Functional evolution of the vitamin D and pregnane X receptors” (BMC Evolutionary Biology, 2007)

Assays:
Xenopus laevis VDR = molecular target: T1, Xenopus laevis VDR (Xenopus laevis, UniProt O13124); test: luciferase reporter transactivation assay in HepG2-NTCP cells, GAL4/xlVDR LBD chimera with tk-UAS-Luc; type: cell-based; conditions: relative to maximal reference compound (1 μM calcitriol, efficacy = 1.0)
T1 sequence (O13124 90-422): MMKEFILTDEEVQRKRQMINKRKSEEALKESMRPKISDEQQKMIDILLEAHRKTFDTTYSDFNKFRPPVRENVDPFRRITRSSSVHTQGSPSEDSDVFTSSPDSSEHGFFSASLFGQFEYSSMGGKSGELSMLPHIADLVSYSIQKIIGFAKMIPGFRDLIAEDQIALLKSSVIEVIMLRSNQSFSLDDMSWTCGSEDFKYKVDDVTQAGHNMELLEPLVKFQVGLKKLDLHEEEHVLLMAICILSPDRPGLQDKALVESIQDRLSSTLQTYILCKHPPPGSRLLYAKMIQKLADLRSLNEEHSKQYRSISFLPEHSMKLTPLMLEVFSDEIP

Sea lamprey VDR [1] = molecular target: T2, Sea lamprey VDR (Petromyzon marinus, UniProt Q7ZZY9); conditions: relative to maximal reference compound (0.5 μM calcitriol, efficacy = 1.0)
T2 sequence (Q7ZZY9 92-406): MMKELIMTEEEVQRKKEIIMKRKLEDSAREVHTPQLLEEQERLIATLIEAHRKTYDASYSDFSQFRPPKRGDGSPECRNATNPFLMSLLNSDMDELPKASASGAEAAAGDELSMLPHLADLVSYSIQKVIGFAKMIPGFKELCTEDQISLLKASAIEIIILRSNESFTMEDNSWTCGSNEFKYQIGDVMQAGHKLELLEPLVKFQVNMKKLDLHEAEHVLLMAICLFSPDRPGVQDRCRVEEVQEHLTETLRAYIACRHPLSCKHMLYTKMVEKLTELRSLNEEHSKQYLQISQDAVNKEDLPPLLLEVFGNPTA

Mouse VDR = molecular target: T3, Mouse VDR (Mus musculus, UniProt P48281); test: luciferase reporter transactivation assay in HepG2-NTCP cells, full-length mVDR with CYP3A4-PXRE-Luc; conditions: relative to maximal reference compound (0.5 μM calcitriol, efficacy = 1.0)
T3 sequence (P48281 1-422): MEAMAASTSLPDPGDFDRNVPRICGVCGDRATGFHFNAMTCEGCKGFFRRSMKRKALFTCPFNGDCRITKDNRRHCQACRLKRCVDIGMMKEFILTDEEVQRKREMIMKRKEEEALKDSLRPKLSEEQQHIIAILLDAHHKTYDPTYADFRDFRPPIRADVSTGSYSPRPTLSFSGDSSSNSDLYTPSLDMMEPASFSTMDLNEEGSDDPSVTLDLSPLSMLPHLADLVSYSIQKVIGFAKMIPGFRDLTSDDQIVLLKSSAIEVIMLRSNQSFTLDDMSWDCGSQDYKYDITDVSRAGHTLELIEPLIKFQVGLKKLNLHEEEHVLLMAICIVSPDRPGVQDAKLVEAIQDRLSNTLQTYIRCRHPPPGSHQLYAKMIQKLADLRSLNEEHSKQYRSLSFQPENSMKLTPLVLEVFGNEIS

Human VDR = molecular target: T4, Human VDR (Homo sapiens, UniProt P11473); test: luciferase reporter transactivation assay in HepG2-NTCP cells, full-length hVDR with CYP3A4-PXRE-Luc; conditions: relative to maximal reference compound (1 μM calcitriol, efficacy = 1.0)
T4 sequence (P11473 1-427): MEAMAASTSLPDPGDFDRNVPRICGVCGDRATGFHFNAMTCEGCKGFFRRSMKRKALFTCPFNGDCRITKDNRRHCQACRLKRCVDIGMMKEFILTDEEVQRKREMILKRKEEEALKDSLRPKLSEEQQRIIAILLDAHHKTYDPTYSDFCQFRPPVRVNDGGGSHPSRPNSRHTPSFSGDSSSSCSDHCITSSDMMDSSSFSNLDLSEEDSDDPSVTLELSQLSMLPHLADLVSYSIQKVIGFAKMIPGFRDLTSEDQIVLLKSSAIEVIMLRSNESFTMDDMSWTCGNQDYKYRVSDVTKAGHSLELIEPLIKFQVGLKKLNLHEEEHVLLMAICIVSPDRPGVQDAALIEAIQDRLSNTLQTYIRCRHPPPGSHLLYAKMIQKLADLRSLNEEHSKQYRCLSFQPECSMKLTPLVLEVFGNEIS

Zebrafish VDR = molecular target: T5, Zebrafish VDR (Danio rerio, UniProt Q9PTN2); test: luciferase reporter transactivation assay in HepG2-NTCP cells, GAL4/zfVDR LBD chimera with tk-UAS-Luc; type: cell-based; conditions: relative to maximal reference compound (1 μM calcitriol, efficacy = 1.0)
T5 sequence (Q9PTN2 121-453): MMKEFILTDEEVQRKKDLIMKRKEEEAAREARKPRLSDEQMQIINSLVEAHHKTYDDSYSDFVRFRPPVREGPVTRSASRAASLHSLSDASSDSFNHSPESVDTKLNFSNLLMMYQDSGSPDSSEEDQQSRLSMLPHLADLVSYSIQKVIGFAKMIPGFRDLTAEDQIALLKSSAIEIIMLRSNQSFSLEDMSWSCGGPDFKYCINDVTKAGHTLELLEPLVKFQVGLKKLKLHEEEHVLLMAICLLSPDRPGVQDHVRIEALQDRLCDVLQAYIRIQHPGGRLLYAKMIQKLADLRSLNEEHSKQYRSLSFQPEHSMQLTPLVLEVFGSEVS

Sea lamprey VDR [2] = molecular target: T2, Sea lamprey VDR; test: cell-based
Ciona VDR/PXR = conditions: HepG2-NTCP cells, luciferase reporter; unit not given; also cells saying No effect

## C=C1/C(=C\C=C2/CCC[C@]3(C)[C@@H]([C@H](C)/C=C/[C@H](C)C(C)C)CC[C@@H]23)C[C@@H](O)C[C@@H]1O
Xenopus laevis VDR
  Xenopus VDR relative efficacy: 0.58
Sea lamprey VDR [1]
  Sea lamprey VDR relative efficacy: 0.88
Mouse VDR
  Mouse VDR relative efficacy: 0.98
Human VDR
  Human VDR relative efficacy: 0.88
Zebrafish VDR
  Zebrafish VDR relative efficacy: 0.78
Sea lamprey VDR [2]
  EC50: 41 ± 3.6 nM
Ciona VDR/PXR
  Ciona VDR/PXR EC50 ± SD: No effect
